Key:
human GLP-1 receptor = target: T1, human GLP-1 receptor (Homo sapiens, UniProt P43220); test: cAMP response (HTRF) of HEK-293 cells stably expressing human GLP-1 receptor; assay type: cell-based; details: Table 5; cAMP, HEK-293; read-out: EC50 hGLP-1R
T1 construct: expressed in transfected cells; host or cells: HEK-293

Sequences of proteins named here, by UniProt entry; tags and fusion partners are left off. Residues count along the entry.
UniProt P43220, 24-463: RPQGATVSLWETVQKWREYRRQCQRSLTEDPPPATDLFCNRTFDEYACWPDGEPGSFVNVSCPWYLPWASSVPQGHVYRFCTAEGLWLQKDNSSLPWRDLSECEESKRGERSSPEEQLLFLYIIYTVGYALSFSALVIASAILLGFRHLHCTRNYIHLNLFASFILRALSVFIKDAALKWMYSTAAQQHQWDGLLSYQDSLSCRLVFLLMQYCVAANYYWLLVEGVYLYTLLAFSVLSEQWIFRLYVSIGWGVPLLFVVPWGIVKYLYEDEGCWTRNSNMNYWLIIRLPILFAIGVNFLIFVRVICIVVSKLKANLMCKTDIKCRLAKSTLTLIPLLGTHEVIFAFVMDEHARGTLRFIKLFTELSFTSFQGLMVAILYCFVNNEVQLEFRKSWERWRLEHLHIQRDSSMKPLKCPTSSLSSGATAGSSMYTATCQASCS
UniProt P47871, 26-477: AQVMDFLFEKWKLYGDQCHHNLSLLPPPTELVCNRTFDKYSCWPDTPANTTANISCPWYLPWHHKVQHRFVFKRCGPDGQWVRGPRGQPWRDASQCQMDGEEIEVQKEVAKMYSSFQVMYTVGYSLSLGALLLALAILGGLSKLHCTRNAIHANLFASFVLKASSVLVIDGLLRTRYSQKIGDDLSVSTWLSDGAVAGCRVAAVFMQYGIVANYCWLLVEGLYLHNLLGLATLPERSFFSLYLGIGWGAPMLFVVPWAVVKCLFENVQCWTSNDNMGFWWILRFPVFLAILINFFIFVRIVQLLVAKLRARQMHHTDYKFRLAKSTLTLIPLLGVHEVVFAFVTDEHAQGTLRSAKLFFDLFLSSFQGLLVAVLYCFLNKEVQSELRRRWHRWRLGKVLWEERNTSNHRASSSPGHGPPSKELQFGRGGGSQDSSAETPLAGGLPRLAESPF

human glucagon receptor = target: T2, human glucagon receptor (Homo sapiens, UniProt P47871); test: cAMP response (HTRF) of HEK-293 cells stably expressing human glucagon receptor; assay type: cell-based; details: Table 5; cAMP, HEK-293; read-out: EC50 hGlucagon-R
T2 construct: expressed in transfected cells; host or cells: HEK-293

| Structure (SMILES) | EC50 (human GLP-1 receptor) | EC50 (human glucagon receptor) |
| --- | --- | --- |
| CCCCCCCCCCCCCCCCCC(=O)N[C@@H](CCC(=O)NCCCC[C@H](NC(=O)[C@H](CCC(N)=O)NC(=O)[C@H](CCCCN)NC(=O)[C@H](CO)NC(=O)[C@H](CC(C)C)NC(=O)[C@H](CC(=O)O)NC(=O)[C@H](CO)NC(=O)[C@@H](NC(=O)[C@H](Cc1ccccc1)NC(=O)[C@@H](NC(=O)CNC(=O)[C@H](CCC(N)=O)NC(=O)C(C)(C)NC(=O)[C@@H](N)Cc1c[nH]cn1)[C@@H](C)O)[C@@H](C)O)C(=O)N[C@@H](CC(=O)O)C(=O)N[C@@H](CCC(=O)O)C(=O)N[C@@H](CCC(=O)O)C(=O)N[C@@H](C)C(=O)N[C@@H](C)C(=O)N[C@@H](CCCNC(=N)N)C(=O)N[C@@H](CC(C)C)C(=O)N[C@@H](Cc1ccccc1)C(=O)N[C@H](C(=O)N[C@@H](CCC(=O)O)C(=O)N[C@@H](Cc1c[nH]c2ccccc12)C(=O)N[C@@H](CC(C)C)C(=O)N[C@@H](CCCCN)C(=O)N[C@@H](C)C(=O)NCC(=O)NCC(=O)N1CCC[C@H]1C(=O)N[C@@H](CO)C(=O)N[C@@H](CO)C(=O)NCC(=O)N[C@@H](C)C(=O)N1CCC[C@H]1C(=O)N1CCC[C@H]1C(=O)N1CCC[C@H]1C(=O)N[C@@H](CO)C(N)=O)[C@@H](C)CC)C(=O)O [compound 216] | 4.7 pM | 19.5 pM |
| CCCCCCCCCCCCCCCCCC(=O)N[C@@H](CCC(=O)NCCCC[C@H](NC(=O)[C@H](CCC(N)=O)NC(=O)[C@H](CCCCN)NC(=O)[C@H](CO)NC(=O)[C@H](CC(C)C)NC(=O)[C@H](CC(=O)O)NC(=O)[C@H](CO)NC(=O)[C@@H](NC(=O)[C@H](Cc1ccccc1)NC(=O)[C@@H](NC(=O)CNC(=O)[C@H](Cc1c[nH]cn1)NC(=O)C(C)(C)NC(=O)[C@@H](N)Cc1c[nH]cn1)[C@@H](C)O)[C@@H](C)O)C(=O)N[C@@H](CCC(=O)O)C(=O)N[C@@H](CCC(=O)O)C(=O)N[C@@H](CCC(=O)O)C(=O)N[C@@H](C)C(=O)N[C@@H](C)C(=O)N[C@@H](CCCNC(=N)N)C(=O)N[C@@H](CC(C)C)C(=O)N[C@@H](Cc1ccccc1)C(=O)N[C@H](C(=O)N[C@@H](CCC(=O)O)C(=O)N[C@@H](Cc1c[nH]c2ccccc12)C(=O)N[C@@H](CC(C)C)C(=O)N[C@@H](CCCCN)C(=O)N[C@@H](C)C(=O)NCC(=O)NCC(=O)N1CCC[C@H]1C(=O)N[C@@H](CO)C(=O)N[C@@H](CO)C(=O)NCC(=O)N[C@@H](C)C(=O)N1CCC[C@H]1C(=O)N1CCC[C@H]1C(=O)N1CCC[C@H]1C(=O)N[C@@H](CO)C(N)=O)[C@@H](C)CC)C(=O)O [compound 217] | 4.3 pM | 2.1 pM |
| CCCCCCCCCCCCCCCCCC(=O)N[C@@H](CCC(=O)NCCCC[C@H](NC(=O)[C@H](CCC(N)=O)NC(=O)[C@H](CCCCN)NC(=O)[C@H](CO)NC(=O)[C@H](CC(C)C)NC(=O)[C@H](CC(=O)O)NC(=O)[C@H](CO)NC(=O)[C@@H](NC(=O)[C@H](Cc1ccccc1)NC(=O)[C@@H](NC(=O)CNC(=O)[C@H](Cc1c[nH]cn1)NC(=O)[C@@H](CO)NC(=O)[C@@H](N)Cc1c[nH]cn1)[C@@H](C)O)[C@@H](C)O)C(=O)N[C@@H](CCC(=O)O)C(=O)N[C@@H](CCC(=O)O)C(=O)N[C@@H](CCC(=O)O)C(=O)N[C@@H](C)C(=O)N[C@@H](C)C(=O)N[C@@H](CCCNC(=N)N)C(=O)N[C@@H](CC(C)C)C(=O)N[C@@H](Cc1ccccc1)C(=O)N[C@H](C(=O)N[C@@H](CCC(=O)O)C(=O)N[C@@H](Cc1c[nH]c2ccccc12)C(=O)N[C@@H](CC(C)C)C(=O)N[C@@H](CCCCN)C(=O)N[C@@H](C)C(=O)NCC(=O)NCC(=O)N1CCC[C@H]1C(=O)N[C@@H](CO)C(=O)N[C@@H](CO)C(=O)NCC(=O)N[C@@H](C)C(=O)N1CCC[C@H]1C(=O)N1CCC[C@H]1C(=O)N1CCC[C@H]1C(=O)N[C@@H](CO)C(N)=O)[C@@H](C)CC)C(=O)O [compound 219] | 2.1 pM | 3.7 pM |
| CCCCCCCCCCCCCCCCCC(=O)N[C@@H](CCC(=O)NCCCC[C@H](NC(=O)[C@H](CCC(N)=O)NC(=O)[C@H](CCCCN)NC(=O)[C@H](CO)NC(=O)[C@H](CC(C)C)NC(=O)[C@H](CC(=O)O)NC(=O)[C@H](CO)NC(=O)[C@@H](NC(=O)[C@H](Cc1ccccc1)NC(=O)[C@@H](NC(=O)CNC(=O)[C@H](Cc1c[nH]cn1)NC(=O)[C@@H](CO)NC(=O)[C@@H](N)Cc1c[nH]cn1)[C@@H](C)O)[C@@H](C)O)C(=O)N[C@@H](CC(=O)O)C(=O)N[C@@H](CCC(=O)O)C(=O)N[C@@H](CCC(=O)O)C(=O)N[C@@H](C)C(=O)N[C@@H](C)C(=O)N[C@@H](CCCNC(=N)N)C(=O)N[C@@H](CC(C)C)C(=O)N[C@@H](Cc1ccccc1)C(=O)N[C@H](C(=O)N[C@@H](CCC(=O)O)C(=O)N[C@@H](Cc1c[nH]c2ccccc12)C(=O)N[C@@H](CC(C)C)C(=O)N[C@@H](CCCCN)C(=O)N[C@@H](C)C(=O)NCC(=O)NCC(=O)N1CCC[C@H]1C(=O)N[C@@H](CO)C(=O)N[C@@H](CO)C(=O)NCC(=O)N[C@@H](C)C(=O)N1CCC[C@H]1C(=O)N1CCC[C@H]1C(=O)N1CCC[C@H]1C(=O)N[C@@H](CO)C(N)=O)[C@@H](C)CC)C(=O)O [compound 220] | 2 pM | 2.3 pM |
| CCCCCCCCCCCCCCCC(=O)N[C@@H](CCC(=O)NCCCC[C@H](NC(=O)[C@H](CCC(N)=O)NC(=O)[C@H](CCCCN)NC(=O)[C@H](CO)NC(=O)[C@H](CC(C)C)NC(=O)[C@H](CC(=O)O)NC(=O)[C@H](CO)NC(=O)[C@@H](NC(=O)[C@H](Cc1ccccc1)NC(=O)[C@@H](NC(=O)CNC(=O)[C@H](CCC(N)=O)NC(=O)[C@@H](CO)NC(=O)[C@@H](N)Cc1c[nH]cn1)[C@@H](C)O)[C@@H](C)O)C(=O)N[C@@H](CC(=O)O)C(=O)N[C@@H](CCC(=O)O)C(=O)N[C@@H](CCC(=O)O)C(=O)N[C@@H](C)C(=O)N[C@@H](C)C(=O)N[C@@H](CCCNC(=N)N)C(=O)N[C@@H](CC(C)C)C(=O)N[C@@H](Cc1ccccc1)C(=O)N[C@H](C(=O)N[C@@H](CCC(=O)O)C(=O)N[C@@H](Cc1c[nH]c2ccccc12)C(=O)N[C@@H](CC(C)C)C(=O)N[C@@H](CCCCN)C(=O)N[C@@H](C)C(=O)NCC(=O)NCC(=O)N1CCC[C@H]1C(=O)N[C@@H](CO)C(=O)N[C@@H](CO)C(=O)NCC(=O)N[C@@H](C)C(=O)N1CCC[C@H]1C(=O)N1CCC[C@H]1C(=O)N1CCC[C@H]1C(=O)N[C@@H](CO)C(N)=O)[C@@H](C)CC)C(=O)O [compound 221] | 1.5 pM | 9.2 pM |
| CCCCCCCCCCCCCCCCCC(=O)N[C@@H](CCC(=O)NCCCC[C@H](NC(=O)[C@H](CCC(N)=O)NC(=O)[C@H](CCCCN)NC(=O)[C@H](CO)NC(=O)[C@H](CC(C)C)NC(=O)[C@H](CC(=O)O)NC(=O)[C@H](CO)NC(=O)[C@@H](NC(=O)[C@H](Cc1ccccc1)NC(=O)[C@@H](NC(=O)CNC(=O)[C@H](CCC(N)=O)NC(=O)[C@@H](CO)NC(=O)[C@@H](N)Cc1c[nH]cn1)[C@@H](C)O)[C@@H](C)O)C(=O)N[C@@H](CC(=O)O)C(=O)N[C@@H](CCC(=O)O)C(=O)N[C@@H](CCC(=O)O)C(=O)N[C@@H](C)C(=O)N[C@@H](C)C(=O)N[C@@H](CCCNC(=N)N)C(=O)N[C@@H](CC(C)C)C(=O)N[C@@H](Cc1ccccc1)C(=O)N[C@H](C(=O)N[C@@H](CCC(=O)O)C(=O)N[C@@H](Cc1c[nH]c2ccccc12)C(=O)N[C@@H](CC(C)C)C(=O)N[C@@H](CCCCN)C(=O)N[C@@H](C)C(=O)NCC(=O)NCC(=O)N1CCC[C@H]1C(=O)N[C@@H](CO)C(=O)N[C@@H](CO)C(=O)NCC(=O)N[C@@H](C)C(=O)N1CCC[C@H]1C(=O)N1CCC[C@H]1C(=O)N1CCC[C@H]1C(=O)N[C@@H](CO)C(N)=O)[C@@H](C)CC)C(=O)O [compound 222] | 1.8 pM | 2.9 pM |

— patent US20140100156A1 (SANOFI, priority 2012, published 2014)
